Each substance was assayed on human uroepithelial cells. Details: permeability enhancing vehicles tested with surrogate fluorescent gelatin and with TEM molecules.

| Substance | Typical Results |
| --- | --- |
| Polyoxyethylene (10) oleoyl ether | Increase (Dose response) |
| Polyoxyethylene (20) oleoyl ether | Increase (Dose response) |
| SDS | Inhibited |
| Deoxy Big Chaps | Increase (Dose response) |
| Big Chaps | Increase (Dose response) |

Reference: patent US9943576B2 (priority 2014, dated 2018)
